Measured values as given in patent publication EP2132185B1, “PYRIMIDINYL-PIPERAZINES USEFUL AS DOPAMINE D3/D2 RECEPTOR LIGANDS” (Richter Gedeon Nyrt., priority 2007, dated 2008).

Test system: male Wistar rats
Experiment: Catalepsy test
Type: in vivo, rat
Details: oral treatment, minimum effective (cataleptic) dose

SMILES | Catalepsy (MED, mg/kg) [mg/kg]
Cc1cc2c(s1)Nc1ccccc1N=C2N1CCN(C)CC1 [Olanzapine, reference compound] | 40
Cc1nc2n(c(=O)c1CCN1CCC(c3noc4cc(F)ccc34)CC1)CCCC2 [Risperidone, reference compound] | 6.0
